In patent publication US20190048074A1 (Regeneron, published 2019):

T1: full-length human APLNR (human, UniProt P35414 1-380)
T1 sequence: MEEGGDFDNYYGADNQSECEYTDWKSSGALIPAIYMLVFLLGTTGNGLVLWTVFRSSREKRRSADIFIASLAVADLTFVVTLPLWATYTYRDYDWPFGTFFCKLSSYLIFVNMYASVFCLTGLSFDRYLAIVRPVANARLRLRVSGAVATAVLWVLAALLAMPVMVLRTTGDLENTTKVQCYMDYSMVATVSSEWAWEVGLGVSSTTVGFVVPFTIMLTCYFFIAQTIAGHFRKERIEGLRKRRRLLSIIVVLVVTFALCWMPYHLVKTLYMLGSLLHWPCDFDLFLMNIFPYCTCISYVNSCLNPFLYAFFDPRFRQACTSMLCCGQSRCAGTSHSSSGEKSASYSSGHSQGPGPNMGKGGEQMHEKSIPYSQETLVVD

T2: human Apelin receptor (hAPLNR) in PathHunter eXpress AGTRL1 CHO-K1 β-Arrestin cells (human, UniProt P35414 1-380)
T2 sequence: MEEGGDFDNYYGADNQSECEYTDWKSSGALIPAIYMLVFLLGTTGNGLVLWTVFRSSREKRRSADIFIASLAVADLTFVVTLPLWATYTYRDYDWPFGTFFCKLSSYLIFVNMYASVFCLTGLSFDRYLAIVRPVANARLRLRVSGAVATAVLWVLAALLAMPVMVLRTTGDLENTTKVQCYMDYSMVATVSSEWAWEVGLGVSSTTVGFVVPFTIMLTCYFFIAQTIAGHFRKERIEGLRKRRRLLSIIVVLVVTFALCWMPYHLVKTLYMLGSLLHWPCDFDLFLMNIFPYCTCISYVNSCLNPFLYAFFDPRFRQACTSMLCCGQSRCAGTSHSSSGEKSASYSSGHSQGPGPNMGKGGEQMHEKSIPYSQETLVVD

T3: full length cynomolgus APLNR (cynomolgus monkey (Macaca fascicularis), UniProt O97666 1-380 (rhesus entry))
T3 construct: Stably expressed on HEK293/CRE-luc/MfAPLNR cells; also called MfAPLNR; mfAPLNR
T3 sequence: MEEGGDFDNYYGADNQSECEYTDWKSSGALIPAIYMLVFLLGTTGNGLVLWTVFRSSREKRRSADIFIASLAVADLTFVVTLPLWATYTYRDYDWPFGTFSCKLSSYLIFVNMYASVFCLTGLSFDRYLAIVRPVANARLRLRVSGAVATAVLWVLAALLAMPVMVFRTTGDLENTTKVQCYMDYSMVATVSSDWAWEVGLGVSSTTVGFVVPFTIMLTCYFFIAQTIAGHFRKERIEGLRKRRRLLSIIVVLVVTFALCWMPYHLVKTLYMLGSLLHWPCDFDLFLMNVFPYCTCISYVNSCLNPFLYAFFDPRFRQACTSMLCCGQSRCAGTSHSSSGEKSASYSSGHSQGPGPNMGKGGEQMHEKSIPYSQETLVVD


Tests used:
full-length human APLNR [1] = target: T1, full-length human APLNR; test: cell-based or functional assay
full-length human APLNR [2] = target: T1, full-length human APLNR; test: cell-based or functional assay; remark: listed apart in the source
full-length human APLNR [3] = target: T1, full-length human APLNR; test: cell-based or functional assay; remark: listed apart in the source
full-length human APLNR [4] = target: T1, full-length human APLNR; test: cell-based or functional assay; remark: listed apart in the source
[5] = target: T2, human Apelin receptor (hAPLNR) in …; test: cell-based or functional assay
full-length human APLNR [6] = target: T1, full-length human APLNR; test: FACS, HEK293/CRE-luc/hAPLNR cells
[7] = target: T3, full length cynomolgus APLNR; test: FACS, HEK293/CRE-luc/MfAPLNR cells
full-length human APLNR [8] = target: T1, full-length human APLNR; test: FACS, 10 µg/mL antibody, HEK293/CRE-luc/hAPLNR cells
[9] = target: T3, full length cynomolgus APLNR; test: FACS, 10 µg/mL antibody, HEK293/CRE-luc/MfAPLNR cells

Row | Binder | % Activation at 100 nM mAb (10 µM Forskolin) (full-length human APLNR [1]) [%] | EC50 [M] (10 µM Forskolin) (full-length human APLNR [1]) | Binding Ratio of Geom. Mean to Unstained Cells (full-length human APLNR [6]) [fold] | Binding Ratio of Geom. Mean to Unstained Cells [7] [fold] | further results
1 | H4H9209N-4-NVH3 (antibody, V domains shown) VH: EVQLLESGGGLVQPGGSLRLSCAASGFTFSNYAMNWVRQAPGRGLEWVSAIHYDGSNSYYADSVKGRFTISRDNSKNTLYLQMNSLRAEDTAIYYCAILSRVYWGQGTLVTVSS VL: DIQMTQSPSSLSASVGDRVTITCRASQGINNYLAWFQQKPGKAPKSLIYATSSLQSGVPSKFSGSGSGTDFTLTISSLQPEDFATYYCQQYNSYPLTFGGGTKVEIK | 100 | 2.8e-11 |  |  | % Activation at 100 nM mAb (7.5 µM Forskolin) (full-length human APLNR [2]): 100%; EC50 [M] (7.5 µM Forskolin) (full-length human APLNR [2]): 2.4e-11 M; Activating EC50 (M), pERK/total ERK assay (full-length human APLNR [3]): 2.71e-10 M
2 | H4H9209N-1-NVH0 (antibody, V domains shown) VH: EVQLLESGGGLVQPGGSLRLSCAASGFTFSNYAMNWVRQAPGRGLEWVSAIHYDGSNSYYADSVKGRFTISRDNSKNTLYLQMNSLRAEDTAIYYCAILSRVYWGQGTLVTVSS VL: DIQMTQSPSSLSASVGDRVTITCRASQGINNYLAWFQQKPGKAPKSLIYATSSLQSGVPSKFSGSGSGTDFTLTISSLQPEDFATYYCQQYNSYPLTFGGGTKVEIK |  |  |  |  | % Inhibition at 100 nM mAb, in the presence of 100 ρM Apelin (at 10 µM Forskolin) (full-length human APLNR [4]): 13%
3 | H4H9209N-2-NVH1 (antibody, human IgG4, V domains shown) VH: EVQLLESGGGLVQPGGSLRLSCAASGFTFSNYAMNWVRQAPGRGLEWVSAIHYDGSNSYYADSVKGRFTISRDNSKNTLYLQMNSLRAEDTAIYYCAILSRVYWGQGTLVTVSS VL: DIQMTQSPSSLSASVGDRVTITCRASQGINNYLAWFQQKPGKAPKSLIYATSSLQSGVPSKFSGSGSGTDFTLTISSLQPEDFATYYCQQYNSYPLTFGGGTKVEIK | 100 | 2.9e-09 |  |  | 
4 | H4H9209N-3-NVH2 (antibody, V domains shown) VH: EVQLLESGGGLVQPGGSLRLSCAASGFTFSNYAMNWVRQAPGRGLEWVSAIHYDGSNSYYADSVKGRFTISRDNSKNTLYLQMNSLRAEDTAIYYCAILSRVYWGQGTLVTVSS VL: DIQMTQSPSSLSASVGDRVTITCRASQGINNYLAWFQQKPGKAPKSLIYATSSLQSGVPSKFSGSGSGTDFTLTISSLQPEDFATYYCQQYNSYPLTFGGGTKVEIK | 100 | 6.5e-11 |  |  | 
5 | H4H9093P-3-NVH3 (antibody, V domains shown, Antibody-apelin fusion protein; human IgG4 Fc; also called H4H9093P Nter VH fusion with (G4S)3 linker) VH: EVQLVESGGGLVKPGGSLRLSCAASGITFSNAWMSWVRQAPGKGLEWVGRFKGKADGGTVDYAAPVKGRFTISRDDSKNTLYLQMNSLKNEDTAVYYCTTGRITMVRGVLGYWGQGTLVTVSS VL: not shown | 100 | 5.9e-11 | 130 | 49 | % Activation at 100 nM mAb (7.5 µM Forskolin) (full-length human APLNR [2]): 100%; EC50 [M] (7.5 µM Forskolin) (full-length human APLNR [2]): 8.7e-11 M; Activating EC50 (M), pERK/total ERK assay (full-length human APLNR [3]): 5.42e-10 M; % Activation at 500 nM antibody or Apelin-antibody fusion [5]: 54%; EC50 [M], PathHunter β-Arrestin assay [5]: 2.1e-09 M
6 | H4H9092P (antibody, V domains shown, Fully human, human IgG4 Fc (H4H prefix)) VH: EVQLVESGGGLVKPGGSLRLSCAASGITFSNAWMSWVRQAPGKGLEWVGRIKSKVDGGTIDYAAPVKGRFTISRDDSKNTLYLQMNSLKTEDTAVYYCTTGRITMVRGVLGYWGQGTLVTVSS VL: not shown |  |  | 37 | 20 | Binding Ratio of Geom. Mean to Unstained Cells (full-length human APLNR [8]): 37 fold; Binding Ratio of Geom. Mean to Unstained Cells [9]: 20 fold
7 | H4H9093P-1-NVK3 (antibody, V domains shown, Antibody-apelin fusion protein; human IgG4 Fc; also called H4H9093P Nter Vk fusion with (G4S)3 linker) VH: EVQLVESGGGLVKPGGSLRLSCAASGITFSNAWMSWVRQAPGKGLEWVGRFKGKADGGTVDYAAPVKGRFTISRDDSKNTLYLQMNSLKNEDTAVYYCTTGRITMVRGVLGYWGQGTLVTVSS VL: not shown | 100 | 7.7e-09 | 31 | 16 | 
